{"source": "patent US20140093525A1", "about": "“COMPOSITIONS AND METHODS OF TREATING OPIOID ADDICTION” (Minneapolis Medical Research Foundation, priority 2012, published 2014)", "system": "serum antibodies elicited by OXY-KLH", "assay": "Competition ELISA of serum from rats vaccinated with OXY-KLH", "data": [{"substance": "[Leu5]-enkephalin [Leu-enkephalin]", "values": [{"measurement": "relative affinity of antiserum / cross-reactivity (in words)", "result": "negligible cross-reactivity"}]}]}
